Compounds with a hit are over-represented: about 16% of the library has one in this group of screens.
miR-21 reporter = miR-21 reporter, rising signal | HeLa miR-21 FLuc reporter, luciferase, 48 h | Potency, µM (top dose mostly 38.3 µM), inactives show at the highest dose reporter change, positive = more light | 340,000 tested, under 10 active | AID 2288; active = well fitted rising curve with a large enough effect; inconclusive = small, poorly fitted or top-dose-only effect; inactive = no such curve, though single readings can be large or run the other way;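 note: % of control where 0% means no effect; miR-21 action dims this reporter so a rising signal means less miR-21 action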
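HeLa cells endogenously expressing miR-21, stably carrying CMV-driven firefly luciferase with a downstream miR-21 binding site, 2000 cells/well. Titrations up to approximately 40 uM, 48 hours; luciferase luminescence read.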
TDP1 cell noCPT = qHTS for Inhibitors of human tyrosyl-DNA phosphodiesterase 1 (TDP1): qHTS in cells in absence of CPT | AID 686978, 2013 | Potency, µM (highest dose often 46.2 µM), for inactives: at the highest dose activity change, negative = growth inhibition, hits mostly inhibitors | DT40 Tdp1-/- hTDP1 cells, no CPT, ATP luminescence, 48 h | 15% of 420,000 active; also: potency is read from the fitted curve at half-maximal effect; % is scaled to controls: 0 for no effect and ±100 for the full control effect; nearly all actives have a fitted effect of over 55% in size
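Chicken DT40 Tdp1-/- cells complemented with human TDP1, screened without camptothecin (DMSO vehicle only), 400 cells/well. Compounds pin-transferred, cells incubated at 37 °C for at least 48 hr. Growth read as ATP-dependent luminescence (CellTiter-Glo, 30 min at RT).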
DT40 TDP1 CPT = DT40-hTDP1 cell growth loss with CPT | Potency, µM (highest dose often 46.2 µM), for inactives: at the top dose activity change, negative = growth inhibition, actives largely listed as inhibitors | 12% of 420,000 active | AID 686979 | chicken DT40 Tdp1-/-;hTDP1 cells + 20 nM CPT, ATP luminescence, 48 h; also: potency is read from the fitted curve at half-maximal effect; % is scaled to controls: 0 for no effect and ±100 for the full control effect; nearly all actives have a fitted effect of over 55% in size
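Cell growth measured by CellTiter-Glo luminescence after a minimum 48 h, 37 C compound exposure with 20 nM CPT in Tdp1-knockout DT40 cells stably expressing hTDP1, seeded 400/well; qHTS titration format.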
uPA generation = blocks generation of uPA at the cell surface | cell surface uPA generation assay, qHTS | Potency, µM (titrated, usually from 38.3 µM), inactives show top-dose activity change, negative = inhibition, most hits filed as inhibitors | 0.31% of 330,000 active; active = well fitted inhibition curve with a large enough effect; inconclusive = small, poorly fitted or top-dose-only effect; inactive = no such curve, though single readings can be large or run the other way; tested in mouse RAW 264.7 cells; also: potency is read from the fitted curve at half-maximal effect; % is scaled to controls: 0 for no effect and ±100 for the full control effect; nearly all actives have a fitted effect of over 55% in size
TDP1 block = inhibitors of human tyrosyl-DNA phosphodiesterase TDP1; Q9NUW8; recombinant TDP1, AlphaScreen DNA substrate cleavage; Potency, µM (titrated, usually from 130 µM), without a hit: top-dose activity change, negative = inhibition, most hits filed as inhibitors; 0.28% of 350,000 active; AID 485290; also: potency is read from the fitted curve at half-maximal effect; % is scaled to controls: 0 for no effect and ±100 for the full control effect; nearly all actives have a fitted effect of over 40% in size
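Steps: enzyme plus compound, 15 min RT; add biotin/phosphotyrosine-FITC oligonucleotide (15 nM final), react 5 min; add donor/acceptor beads (10 ug/ml final), 10 min; read AlphaScreen. Tdp1 at 1 nM final.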
An asterisk follows results filed as active; ? = inconclusive; nt = no result given. Unless noted, calls follow the shape of the dose curve; as a rule, active = well fitted curve in the direction sought with a large enough effect; inconclusive = small, poorly fitted or top-dose-only effect, or another doubt; inactive = no such curve, though single readings can be large; an effect the other way counts as inactive or inconclusive.

1. CCC1CCCCN1S(=O)(=O)c1ccc(NC(=O)c2cccs2)cc1 (stereo unspecified)
2. CCCSc1ncc(Cl)c(C(=O)Nc2ccc(S(=O)(=O)N3CCCCC3C)cc2)n1 (stereo unspecified)
3. Cc1ccc(N(CC(=O)N2CCN(c3cccc(Cl)c3)CC2)S(=O)(=O)c2c(C)noc2C)cc1
4. O=C(COc1ccccc1)N(Cc1cccnc1)c1nc2c(F)cc(F)cc2s1
5. CCc1ccccc1N1C(=O)c2cccc3c(N4CCOCC4)c([N+](=O)[O-])cc(c23)C1=O
6. O=[N+]([O-])c1ncn(Cc2ccccc2Cl)n1
7. O=[N+]([O-])c1ncn(Cc2c(Cl)cccc2Cl)n1
8. Cc1ccc(S(=O)(=O)n2ccc3c2CCCC3=O)cc1

Compound,1,2,3,4,5,6,7,8
miR-21 reporter,12.1%,?,27.2%,-10.5%,-6.0%,-1.3%,26.2%,3.3%
TDP1 cell noCPT,16.4µM*,8.2µM*,?,?,?,1.8%,?,20.6µM*
DT40 TDP1 CPT,23.1µM*,?,?,-25.8%,?,1.3%,18.4µM*,?
uPA generation,-1.9%,nt,nt,nt,nt,-2.7%,?,-6.1%
TDP1 block,0.0%,3.7%,0.0%,2.6%,9.6%,3.1%,0.0%,nt

9. COc1ccc(CCN(C)c2ccc(C(N)=O)cc2[N+](=O)[O-])cc1OC
10. COc1ccc(CCN(C)C/C=C/c2ccccc2[N+](=O)[O-])cc1OC
11. O=C(N/N=C/c1ccc(F)cc1)c1cc(-c2ccco2)nc2ccccc12
12. CCOc1ccc(/C=N/NC(=O)c2cc(-c3ccco3)nc3ccccc23)cc1
13. CCN(CC)S(=O)(=O)c1cc(C(=O)c2nccn2C)ccc1Cl
14. Nn1c(SCC(=O)Nc2nnc(-c3ccccc3)o2)nnc1C1CC1
15. CCc1cccc(C)c1NC(=O)c1ccc2c(c1)CCN2S(=O)(=O)c1ccc(Cl)cc1
16. CCS(=O)(=O)N1CCc2cc(C(=O)Nc3cc(Cl)ccc3C)ccc21

Compound,9,10,11,12,13,14,15,16
miR-21 reporter,-11.1%,-3.8%,0.0%,11.0%,2.7%,nt,10.5%,-1.3%
TDP1 cell noCPT,-14.9%,?,13µM*,23.1µM*,-19.4%,5.6%,9.2µM*,23.1µM*
DT40 TDP1 CPT,29.1µM*,?,11.6µM*,?,-4.5%,-0.4%,?,29.1µM*
uPA generation,-11.4%,-7.2%,-7.3%,-8.4%,0.8%,3.8%,nt,nt
TDP1 block,7.7%,nt,nt,3.4%,0.0%,0.2%,4.7%,8.6%

17. CCc1cccc(C)c1NC(=O)c1ccc2c(c1)CCN2S(=O)(=O)CC
18. O=C1c2ccsc2SCCN1Cc1cccc(F)c1
19. CCc1nnc(NC(=O)c2ccc3c(c2)C(=O)N(CC(C)C)C3=O)s1
20. Cc1ccc(C(N)=S)c(C)c1
21. Cc1ccc(C(=O)Nc2ccc3ccccc3c2)cc1
22. O=C(Nc1ccc2ccccc2c1)c1ccc(Cl)cc1
23. O=C(Nc1nnc(-c2ccncc2)o1)c1ccc2ccccc2c1
24. O=C(Nc1ccncc1)c1ccc2ccccc2c1

Compound,17,18,19,20,21,22,23,24
miR-21 reporter,0.9%,-2.0%,-2.0%,-8.4%,14.9%,-28.0%,1.9%,-29.3%
TDP1 cell noCPT,11.6µM*,-8.7%,nt,-28.2%,-14.8%,-3.7%,7.31µM*,13µM*
DT40 TDP1 CPT,?,4.4%,nt,-22.3%,-10.8%,-8.9%,8.2µM*,?
uPA generation,nt,-3.6%,nt,4.9%,-16.1%,10µM*,-2.0%,-2.4%
TDP1 block,2.9%,nt,1.7%,-1.0%,2.1%,nt,3.6%,0.0%

25. O=C(Nc1ccncc1)c1ccc2c(c1)OCCO2
26. C=CCn1c(O)c(C2=c3ccccc3=NC2=O)sc1=Nc1ccc(O)cc1
27. CCCNC(=O)C(Cc1ccccc1F)NC(=O)c1ccccn1 (stereo unspecified)
28. Cc1ccc(Cn2cc(CN3CC(N(C)C)CS3(=O)=O)nn2)cc1 (stereo unspecified)
29. O=C(NC1CCCCC1)C(c1ccccn1)N(C(=O)Cc1cccs1)c1ccc(Cl)cc1 (stereo unspecified)
30. Cc1ccc(C(C(=O)NC2CCCC2)N(C(=O)Cc2cccs2)c2cccc(C)c2C)o1 (stereo unspecified)
31. Cc1ccccc1NC(=O)CSc1nccn1Cc1ccco1
32. CCOC(=O)C1(CC2CC2)CCN(C(=O)c2cc(C)nc3ccc(CC)cc23)CC1

Compound,25,26,27,28,29,30,31,32
miR-21 reporter,-13.6%,-1.3%,nt,nt,-1.8%,0.2%,nt,-2.6%
TDP1 cell noCPT,?,?,-11.0%,-3.5%,?,16.4µM*,-28.5%,18.4µM*
DT40 TDP1 CPT,?,23.1µM*,-2.9%,15.3%,29.1µM*,20.6µM*,-15.6%,20.6µM*
uPA generation,-4.4%,-14.2%,-2.8%,nt,nt,1.4%,nt,-1.4%
TDP1 block,0.0%,nt,0.5%,nt,1.0%,2.8%,nt,1.2%

33. COc1ccc(/C=C(\C#N)C(=O)OCC(=O)NC2CC2)cc1
34. CCc1cccc(-n2nnc(-c3nc(-c4ccc5c(c4)OCO5)no3)c2C)c1
35. CCCCCCCCCCCCCCCCn1cc[n+](C)c1
36. Cc1oc(-c2cc3c(cc2Cl)OCO3)nc1CN1CCCC(C(=O)N2CCOCC2)C1 (stereo unspecified)
37. COc1cccc(N2CCN(Cc3nc4ccccc4c(=O)[nH]3)CC2)c1
38. COc1cccc(N2CCN(Cc3nc4scc(-c5ccccc5)c4c(=O)[nH]3)CC2)c1
39. O=c1[nH]c(CN2CCN(c3ccccc3O)CC2)nc2scc(-c3ccccc3Cl)c12
40. O=c1[nH]c(CN2CCN(c3ccc(O)cc3)CC2)nc2scc(-c3ccc(Cl)cc3)c12

Compound,33,34,35,36,37,38,39,40
miR-21 reporter,-1.7%,-27.8%,?,-2.4%,-7.3%,16.5%,16.6%,27.8%
TDP1 cell noCPT,-18.3%,?,0.461µM*,?,?,5.17µM*,?,4.61µM*
DT40 TDP1 CPT,5.2%,?,0.461µM*,-1.4%,0.8%,5.17µM*,?,3.66µM*
uPA generation,9.4%,nt,?,5.1%,2.0%,-16.5%,3.4%,5.01µM*
TDP1 block,1.6%,-5.3%,1.2%,5.6%,5.3%,2.6%,1.2%,1.2%

Entries of single compounds, quoted from the list.
CCCCCCCCCCCCCCCCn1cc[n+](C)c1 is listed as miR-21 reporter = ?; TDP1 cell noCPT = 0.461µM*; DT40 TDP1 CPT = 0.461µM*; uPA generation = ?; TDP1 block = 1.2%
COc1cccc(N2CCN(Cc3nc4ccccc4c(=O)[nH]3)CC2)c1 is listed as miR-21 reporter = -7.3%; TDP1 cell noCPT = ?; DT40 TDP1 CPT = 0.8%; uPA generation = 2.0%; TDP1 block = 5.3%

The listing continues:
41. O=C(COc1ccccc1)NCC(=O)NC1=NCCS1
42. Cc1c(Cc2ccccc2)sc(NC(=O)/C=C/c2cccc3ccccc23)c1C(N)=O
43. COC(=O)c1c(NC(=O)/C=C/C(=O)O)sc(Cc2ccccc2)c1C
44. Cc1c(Cc2ccccc2)sc(NC(=O)c2ccco2)c1C(N)=O
45. C[C@H](CO)N1C[C@H](C)[C@@H](CN(C)C(=O)Nc2ccc(C(F)(F)F)cc2)Oc2ccc(NC(=O)Cn3cnnn3)cc2C1=O
46. COc1ccc2cc3cc(C(=O)NCCCN4CCC(C)CC4)oc3nc2c1
47. COc1ccc2cc3cc(C(=O)NCCN4CCN(Cc5ccccc5)CC4)oc3nc2c1
48. COc1ccc2cc3cc(C(=O)N4CCCCC4C)oc3nc2c1 (stereo unspecified)
49. O=C(COC(=O)Cc1ccccc1F)NCCNC(=O)COC(=O)Cc1ccccc1F

Compound,41,42,43,44,45,46,47,48,49
miR-21 reporter,0.3%,17.3%,10.9%,-13.9%,nt,-16.8%,-9.7%,-40.2%,nt
TDP1 cell noCPT,-1.7%,3.26µM*,?,?,-2.3%,2.59µM*,20.6µM*,?,-0.9%
DT40 TDP1 CPT,-4.0%,3.66µM*,20.6µM*,-24.0%,5.6%,?,-28.3%,16.4µM*,-4.4%
uPA generation,4.5%,-4.7%,-8.9%,-9.1%,15.6%,?,-0.4%,?,10.9%
TDP1 block,9.0%,0.0%,-2.3%,5.0%,0.6%,-1.3%,5.2%,-0.1%,nt
